The record followed here is patent EP1931657B1, “NOVEL HIGH AFFINITY QUINOLINE-BASED KINASE LIGANDS” (Merck Sharp & Dohme Corp., priority 2005, dated 2007).

Some results are limits rather than exact numbers.

The term IC50 denotes the midpoint of a concentration-inhibition curve.

The experiment has as its target CDK-2 (Homo sapiens, UniProt P24941). The experiment can be described thus: CDK-2 inhibition, fluorescence polarization displacement assay. Background: In fluorescence polarisation assays a small probe gives low polarisation when free and higher when bound to something large.
In turn, `Cc1cnc([C@H](Cc2ccc(O)cc2)NC(=O)c2cc(C(=O)O)c3cc(-c4cccc(C(F)(F)F)c4)ccc3n2)o1` [Compound 45] showed an IC50 below 1 µM.

With `COC[C@H](Cc1ccc(O)cc1)NC(=O)c1cc(C(=O)OC[C@@H](N)C(C)C)c2cc(-c3cccc(C(F)(F)F)c3)ccc2n1` [Compound 176], the 50% inhibitory concentration (IC50) is above 40 µM.

`COC[C@H](Cc1ccc(O)cc1)NC(=O)c1cc(C(=O)OCCN(C)C)c2cc(-c3cccc(C(F)(F)F)c3)ccc2n1` [Compound 175] displayed an IC50 above 40 µM.
